Earlier results as cited in patent publication US5486541A (Teva Pharmaceutical Industries, Ltd., priority 1991, dated 1996).

Tested on: MAO-B
Details: cited from earlier work

Compound: C#CCN(C)[C@H](C)Cc1ccccc1 [(-)-deprenyl]
- MAO-B inhibition by (-)-deprenyl (in words): selectively and irreversibly inhibited
